Source: PubChem
DENV2 CPE rescue = protects cells from dengue virus 2 cytopathic effect; DENV2-infected cells, cytopathic effect rescue, plate reader; CPE inhibition, % at 9.99 µM; 350,000 compounds, 1.7% hits; AID 651640; in the data active = CPE inhibition above about 20%, passing the limit was not always enough; tested in BHK-21 cells
Yeast UUG start = yeast start codon fidelity modulation; activity score, % at 18.7 µM; actives 0.13% (n = 350,000); S. cerevisiae UUG-firefly luciferase reporter, luminescence/redox ratio; AID 602363;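 active means replicate mean at a twofold rise or more, about +100% in these data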;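 further: firefly luciferase made from a UUG start codon reports start codon fidelity; reporter light over untreated wells divided by growth signal over untreated wells; some hits fall short of that in this replicate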
E-sel inducer = induces E-selectin expression in human endothelial cells; 260,000 compounds, 0.37% hits; activation, % at 7.58 µM; AID 686992; P16581; HUVEC E-selectin immunofluorescence imaging; normalized: neutral wells 0, TNF-alpha wells 100;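 active = mean E-selectin-positive cell signal at least 10% of the positive control, reached in at least 60% of replicates, without over 20% cell loss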
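Assay system: HUVEC primary endothelial cells. Input: 3,000 HUVEC seeded per well. Doses: one compound dose added by pin transfer. Read-out basis: % PE-positive cells. Benchmarks: TNF-alpha high, DMSO low. Detection: immunofluorescence imaging. Buffer or medium: EGM-2, gelatin.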
Cneo AK release = causes C. neoformans cell lysis. adenylate kinase release luminescence, 4 h; normalised: neutral wells 0, clomiphene wells 100. 360,000 compounds, 0.2% hits. lysis activity, % at 15 µM;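 active = mean lysis activity across replicates of at least 80%, whatever share of replicates individually reach that level; inactive = mean lysis activity below 80%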
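Material – log-phase Cryptococcus neoformans yeast cells · Input – 5 × 10^6 yeast cells/mL · Medium – fresh YPD growth medium · Doses – single compound concentration per well · Timing – static 4 h at 37 °C with compound, 1 h detection · Detection – adenylate kinase release luminescence · Read-out – signal increase indicating cell lysis · Control set – Clomiphene as positive lysis control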
Large screens that a line does not name were inactive. Shown are actives, neighbours in structure and some others; about 1.8% of the full set was active somewhere.

COc1ccc(-c2ccccc2[C@@H]2[C@@H](C#N)N(C(=O)C3CC3)[C@H]2CO)cc1	DENV2 CPE rescue 26.5 (no result: Yeast UUG start, Cneo AK release)
CN(C)C(=O)c1ccc(-c2ccc([C@@H]3[C@@H](C#N)N(C(=O)C4CCCC4)[C@H]3CO)cc2)cc1	none
O=C(C[C@H]1CC[C@@H](NS(=O)(=O)c2ccccc2)[C@H](CO)O1)NCCN1CCCCC1	none
C[C@H]1CCCCO[C@H](CN(C)C(=O)Cc2ccccc2)[C@@H](C)CN([C@@H](C)CO)C(=O)c2cc(NC(=O)C3CCCCC3)ccc2O1	none
O=C(C[C@H]1C[C@@H]2c3cc(NC(=O)CC4CC4)ccc3O[C@@H]2[C@H](CO)O1)NCc1ccc2c(c1)OCO2	none
C[C@@H]1CN([C@H](C)CO)C(=O)c2cc(/C=C/c3ccccc3)cnc2O[C@@H]1CN(C)C(=O)CN1CCOCC1	none
O=C(NCc1ccccc1Cl)C1CCCN(c2ncnc3c2nc2n3CCCCC2)C1 (stereo not given)	none
O=C(NCc1ccco1)C1CCCN(c2ncnc3c2nc2n3CCCCC2)C1 (stereo not given)	DENV2 CPE rescue 25.3 (no result: E-sel inducer)
COC(=O)C(=O)C1CCc2c(Cl)cc(OC)c(OC)c2C1=O (stereo not given)	DENV2 CPE rescue 64.7 (no result: Yeast UUG start, E-sel inducer, Cneo AK release)
CNC(=O)c1cc(Cl)c(OC)c(OC)c1	none
C[C@@H]1CCCCO[C@H](CN(C)C(=O)NC2CCCCC2)[C@@H](C)CN([C@@H](C)CO)C(=O)c2cc(NS(C)(=O)=O)ccc2O1	none (no result: E-sel inducer)
Cc1noc(C)c1S(=O)(=O)Nc1ccc2c(c1)CC(=O)N([C@@H](C)CO)C[C@H](C)[C@H](CN(C)Cc1ccc(C(=O)Nc3ccccc3N)cc1)O2	DENV2 CPE rescue 61.3 (no result: Yeast UUG start, E-sel inducer, Cneo AK release)
Cc1noc(C)c1S(=O)(=O)Nc1ccc2c(c1)CC(=O)N([C@H](C)CO)C[C@H](C)[C@H](CN(C)Cc1ccc(C(=O)Nc3ccccc3N)cc1)O2	none (no result: Yeast UUG start, E-sel inducer, Cneo AK release)
COc1ccc(S(=O)(=O)Nc2ccc3c(c2)C(=O)N([C@H](C)CO)C[C@@H](C)[C@H](CN(C)Cc2ccc(C(=O)Nc4ccccc4N)cc2)O3)cc1	none
COc1ccc(S(=O)(=O)Nc2ccc3c(c2)C(=O)N([C@@H](C)CO)C[C@H](C)[C@H](CN(C)Cc2ccc(C(=O)Nc4ccccc4N)cc2)O3)cc1	DENV2 CPE rescue 22.9
Cc1noc(C)c1S(=O)(=O)Nc1ccc2c(c1)C(=O)N([C@H](C)CO)C[C@H](C)[C@H](CN(C)Cc1ccc(C(=O)Nc3ccccc3N)cc1)O2	DENV2 CPE rescue 24.0 (no result: Yeast UUG start, Cneo AK release)
Cc1noc(C)c1S(=O)(=O)Nc1ccc2c(c1)C(=O)N([C@@H](C)CO)C[C@H](C)[C@@H](CN(C)Cc1ccc(C(=O)Nc3ccccc3N)cc1)O2	none (no result: Yeast UUG start, Cneo AK release)
COCC(=O)Nc1ccc2c(c1)OC[C@@H](C)N(CC1CC1)C[C@H](C)[C@@H](OC)CN(C)C2=O	none (no result: Yeast UUG start)
O=C(CCN1CCCCC1)NCC[C@@H]1CC[C@H](NC(=O)C2CCOCC2)[C@@H](CO)O1	none
O=C(NC1CCCC1)N1CCCCN2[C@H](CO)[C@@H](c3ccc(-c4cncnc4)cc3)[C@H]2C1	Cneo AK release 106.4
O=C(NC1CCCC1)N1CCCCN2[C@H](CO)[C@@H](c3ccc(-c4cncnc4)cc3)[C@@H]2C1	DENV2 CPE rescue 33.9
O=C(NC1CCCC1)N1CCCCN2[C@@H](CO)[C@H](c3ccc(-c4cncnc4)cc3)[C@@H]2C1	none
O=C(NC1CCCC1)N1CCCCN2[C@H](C1)[C@@H](c1ccc(-c3cncnc3)cc1)[C@@H]2CO	none
CO[C@@H]1CN(C)C(=O)c2ccc(NC(=O)C3CCC3)cc2OC[C@@H](C)N(CC2CCCCC2)C[C@@H]1C	none (no result: Yeast UUG start)
C[C@H]1CN([C@@H](C)CO)C(=O)c2cccc(NC(=O)c3nc4ccccc4s3)c2O[C@@H]1CN(C)S(=O)(=O)c1ccc(F)cc1	none
C[C@@H]1CN([C@H](C)CO)C(=O)Cc2cc(NC(=O)Cn3cnnn3)ccc2O[C@H]1CN(C)S(=O)(=O)c1ccc(F)cc1	none
CCC(C)[C@H](NS(=O)(=O)c1ccc(C)cc1)C(=O)N1CCC(C(=O)N2CCC(C(=O)OC)CC2)CC1 (stereo not given in full)	DENV2 CPE rescue 82.3 (no result: E-sel inducer)
Cc1ccc(S(=O)(=O)N[C@@H](Cc2ccccc2)C(=O)N2CCC(C(=O)N[C@@H](CCC(N)=O)C(=O)O)CC2)cc1	E-sel inducer 65.9
Cc1ccc(S(=O)(=O)N[C@H](C(=O)N2CCC(C(=O)N[C@@H](CC(=O)O)C(=O)O)CC2)C(C)C)cc1	none (no result: E-sel inducer)
O=C1c2cccc(Sc3ccccc3)c2C(=O)c2c(Sc3ccccc3)cccc21	Yeast UUG start 119.0
COCC(=O)N1CC[C@@H]2[C@H](CO)Nc3ccc(-c4cccc(C#N)c4)cc3[C@@H]21	DENV2 CPE rescue 44.1
COCC(=O)N1CC[C@@H]2[C@H](CO)Nc3ccc(C#Cc4ccc(OC)cc4)cc3[C@@H]21	none
CCC(=O)N1CC[C@H]2[C@H](CO)Nc3ccc(C#Cc4ccc(OC)cc4)cc3[C@H]21	DENV2 CPE rescue 56.2 (no result: Yeast UUG start, Cneo AK release)
COCC(=O)N1CC[C@H]2[C@H](CO)Nc3ccc(C#Cc4ccc(OC)cc4)cc3[C@H]21	DENV2 CPE rescue 28.6 (no result: Yeast UUG start, Cneo AK release)
N#Cc1cccc(-c2ccc3c(c2)[C@H]2[C@H](CCN2Cc2ccncc2)[C@H](CO)N3)c1	DENV2 CPE rescue 50.2
CO[C@@H]1CN(C)C(=O)c2ccc(NS(C)(=O)=O)cc2OC[C@@H](C)N(CCC(F)(F)F)C[C@@H]1C	none
CCCN1[C@@H]2Cn3c(cccc3=O)[C@H]1[C@@H](C(=O)NC1Cc3ccccc3C1)[C@@H]2CO	none (no result: Yeast UUG start)
C[C@H](CO)N1C[C@H](C)[C@@H](CN(C)C(=O)C2CCCCC2)OCCCC[C@H](C)Oc2ccc(NC(=O)Nc3cccc4ccccc34)cc2C1=O	none
C[C@@H]1CCCCO[C@@H](CN(C)C(=O)C2CCCCC2)[C@H](C)CN([C@H](C)CO)C(=O)c2cc(NC(=O)Nc3cccc4ccccc34)ccc2O1	DENV2 CPE rescue 23.3
C[C@@H]1CN([C@@H](C)CO)C(=O)c2cc(NC(=O)Nc3cccc4ccccc34)ccc2O[C@@H](C)CCCCO[C@H]1CN(C)C(=O)C1CCCCC1	DENV2 CPE rescue 22.2
C[C@@H]1CCCCO[C@H](CN(C)C(=O)C2CCCCC2)[C@@H](C)CN([C@@H](C)CO)C(=O)c2cc(NC(=O)Nc3cccc4ccccc34)ccc2O1	DENV2 CPE rescue 26.2
C[C@@H]1CCCCO[C@@H](CN(C)C(=O)C2CCCCC2)[C@@H](C)CN([C@H](C)CO)C(=O)c2cc(NC(=O)Nc3cccc4ccccc34)ccc2O1	DENV2 CPE rescue 22.2
C[C@@H]1CN([C@H](C)CO)C(=O)c2cc(NC(=O)Nc3cccc4ccccc34)ccc2O[C@@H](C)CCCCO[C@@H]1CN(C)C(=O)C1CCCCC1	none
C[C@@H]1CN([C@@H](C)CO)C(=O)c2cccc(NC(=O)Nc3ccc4c(c3)OCO4)c2O[C@@H]1CN(C)S(=O)(=O)c1ccccc1	none
C[C@@H]1CN([C@@H](C)CO)S(=O)(=O)c2ccc(C3=CCCC3)cc2O[C@@H]1CN(C)Cc1ccccc1	none
